The structures appear in SMILES notation.

Amino acid sequences for entries named in this document (tags omitted).
UniProt Q9NQS5, whole entry: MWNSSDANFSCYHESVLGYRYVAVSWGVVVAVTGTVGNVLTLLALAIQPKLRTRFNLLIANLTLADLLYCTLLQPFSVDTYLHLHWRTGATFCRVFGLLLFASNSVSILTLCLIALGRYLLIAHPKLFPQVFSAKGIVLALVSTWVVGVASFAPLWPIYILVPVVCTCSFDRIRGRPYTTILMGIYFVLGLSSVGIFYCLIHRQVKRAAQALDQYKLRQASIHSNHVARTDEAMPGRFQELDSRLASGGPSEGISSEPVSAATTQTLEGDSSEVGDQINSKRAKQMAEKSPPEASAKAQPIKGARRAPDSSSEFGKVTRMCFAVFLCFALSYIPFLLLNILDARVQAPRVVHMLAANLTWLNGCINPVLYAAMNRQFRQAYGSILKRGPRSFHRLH

For the assay, the target named is human GPR84 receptor (Homo sapiens, UniProt Q9NQS5). As to the kind of experiment: cAMP HTRF assay for identification of cellular GPR84 antagonists. The conditions noted are these: read-out: GPR84 IC50; CHO-K1 cells stably expressing human GPR84; Forskolin plus agonist 6-OAU; cAMP HTRF readout; average or median values. The text has this:
cAMP HTRF® Assay for Identification of Cellular GPR84 Antagonists
By using a Homogenous Time-Resolved Fluorescence (HTRF®) based assay (#62AM5PEJ, Cisbio, Condolet, France) the inhibition of the Gi-coupled GPR84 receptor can be detected. CHO-K1 cells stably expressing human GPR84 receptor (purchased from DiscoveRx, now Eurofins) were used and treated with Forskolin (F6886, Sigma, Germany) to stimulate membrane adenylyl cyclases and thereby unspecific cAMP formation. Activation of the Gi-coupled GPR84 by a natural or small molecule agonist (e.g. 6-n-octyl aminouracile, inhouse) results in inhibition of cellular cAMP formation which can be released again by antagonists to this receptor. Detection and quantification of cellular cAMP levels in this HTRF assay is achieved by interaction between a fluorescent cAMP tracer (cAMP-d2) and an Eu-cryptate labelled anti-cAMP antibody. Following excitation at 337 nm this pairing allows for the generation of a fluorescence resonance energy transfer (FRET) between the partners and results in FRET induced emissions at 665 nm and 620 nm, the latter representing background signal by Eu-cryptate labelled anti-cAMP antibody. Maximal signal is obtained in the absence of any cellular cAMP (no competition for the binding of the tracer to the antibody). Given the combination of the Gi coupling properties of GPR84 and the competitive nature of the detection system agonist treatment should result in an increase in the HTRF signal due to lowered cAMP levels. Any signal decrease in the presence of Forskolin, agonist and compound are indicative of antagonist mediated abrogation of GPR84 signalling.
For the assay, frozen aliquots of CHO-K1 cells expressing hGPR84 (prepared by acCELLerate, Hamburg, Germany) were thawed and a cell suspension (1.67E+06 cells/mL) in assay media (Ham's F12 Nutrient Mix, Thermo Fisher Scientific, Waltham, USA; 5% fetal calf serum, Biomol, Hamburg, Germany) containing cAMP-d2 (dilution 1:20, supplied with the kit #62AM5PEJ, Cisbio, Condolet, France) was prepared. After recovery of cells for 20 minutes at 37° C., 3 μL/well cell suspension including cAMP-d2 were added to a pre-dispensed assay plate (Greiner Bio-One, Kremsmuenster, Austria) containing 50 nl/well test compound in 100% DMSO or 100% DMSO as control. This was followed by a 30 minute incubation step at room temperature. The stimulation time was started by addition of 2 μL/well assay media containing 2.5×EC80 agonist 6-OAU and 2.5×EC90 Forskolin (negative control: 2.5×EC90 Forskolin in assay media) and was continued for 30 minutes at room temperature. The reaction was stopped by addition of 3 μL/well lysis buffer containing cAMP Eu-Cryptate antibody (dilution 1:20) (both supplied with the kit #62AM5PEJ, Cisbio, Condolet, France). To enable complete lysis, plates were incubated for 60 minutes at room temperature before measurement in an HTRF reader, e.g. a PHERAstar (BMG Labtech, Ortenberg, Germany).
From the fluorescence emissions at 665 nm (FRET) and at 620 nm (background signal of Eu-cryptate) the ratio (emission at 665 nm divided by emission at 620 nm×10000) was calculated and the data were normalized (reaction without test compound, only 100% DMSO=0% inhibition; all other assay components except agonist=100% inhibition). […]
A general note: In TR-FRET formats the signal depends on donor and acceptor labels being close together.

The IC50 is the concentration that inhibits the measured activity by half. As for `Cc1ccc(CNC(=O)c2oc3c(c2C)-c2nn(Cc4cccc(Cl)c4)cc2CC3)cc1`, the IC50 stood at 100 nM.

For `Cc1c(C(=O)NCC2CCCO2)oc2c1-c1nn(Cc3ccccc3Cl)cc1CC2` (single isomer, unassigned) [Example 9-1], the IC50 is 15 nM.

`Cc1c(C(=O)NCC2CCCO2)oc2c1-c1nn(Cc3ccccc3Cl)cc1CC2` (single isomer, unassigned) [Example 9-2]: the IC50 was 60 nM.

As for `Cc1c(C(=O)NCC2CCCO2)oc2c1-c1nn(Cc3ccc(F)cc3Cl)cc1CC2` (single isomer, unassigned) [Example 92-1], the IC50 was determined as 120 nM.

Consider `Cc1c(C(=O)NCC2CCCO2)oc2c1-c1nn(Cc3ccc(F)cc3Cl)cc1CC2` (single isomer, unassigned) [Example 92-2], for which the IC50 is 340 nM.

The values are drawn from patent US20240239804A1, “FUROINDAZOLE DERIVATIVES AS ANTAGONISTS OR INHIBITORS OF GPR84” (Bayer Aktiengesellschaft, priority 2021, published 2024).
